Measured values: article PMC6450568 (Bioorganic & medicinal chemistry letters, 2019)

Protein sequences, listed by entry. Tags and fused reporters are not part of them. Residues count along the entry.
UniProt P0A6F5, 2-548: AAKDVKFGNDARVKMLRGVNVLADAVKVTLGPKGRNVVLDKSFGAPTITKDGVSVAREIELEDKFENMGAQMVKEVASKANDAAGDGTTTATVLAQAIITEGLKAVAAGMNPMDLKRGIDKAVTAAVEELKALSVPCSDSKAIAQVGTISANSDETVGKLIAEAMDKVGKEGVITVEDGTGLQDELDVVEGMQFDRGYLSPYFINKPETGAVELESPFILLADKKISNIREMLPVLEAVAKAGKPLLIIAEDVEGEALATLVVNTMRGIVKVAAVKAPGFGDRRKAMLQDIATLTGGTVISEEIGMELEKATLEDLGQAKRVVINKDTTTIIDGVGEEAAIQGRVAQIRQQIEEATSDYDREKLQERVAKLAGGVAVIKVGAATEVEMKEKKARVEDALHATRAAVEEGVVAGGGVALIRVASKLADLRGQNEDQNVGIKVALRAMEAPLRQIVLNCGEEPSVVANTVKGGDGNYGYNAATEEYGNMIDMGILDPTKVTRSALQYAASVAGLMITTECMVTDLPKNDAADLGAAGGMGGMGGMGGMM
UniProt P10809, 27-573: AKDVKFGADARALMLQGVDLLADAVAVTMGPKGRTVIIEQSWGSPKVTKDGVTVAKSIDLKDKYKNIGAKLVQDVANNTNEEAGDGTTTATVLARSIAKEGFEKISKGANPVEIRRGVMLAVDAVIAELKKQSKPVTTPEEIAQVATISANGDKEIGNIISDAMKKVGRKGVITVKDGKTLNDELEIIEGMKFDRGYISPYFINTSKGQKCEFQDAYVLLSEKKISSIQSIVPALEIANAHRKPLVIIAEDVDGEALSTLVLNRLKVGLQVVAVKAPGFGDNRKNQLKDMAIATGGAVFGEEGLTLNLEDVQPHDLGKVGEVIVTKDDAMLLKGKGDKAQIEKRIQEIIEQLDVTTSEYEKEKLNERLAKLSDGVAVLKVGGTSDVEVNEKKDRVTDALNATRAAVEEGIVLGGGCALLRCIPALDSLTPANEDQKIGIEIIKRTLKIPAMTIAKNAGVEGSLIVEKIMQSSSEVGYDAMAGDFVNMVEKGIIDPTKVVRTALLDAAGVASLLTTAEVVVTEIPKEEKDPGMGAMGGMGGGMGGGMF

Assays:
[1] = target: T1, E. coli GroEL/ES chaperonin system (Escherichia coli, UniProt P0A6F5); conditions: read-out: Biochemical Assay IC50, GroEL/ES-mediated refolding of dMDH
[2] = target: human HSP60/10 chaperonin system (Homo sapiens, UniProt P10809); assay: HSP60/10-dMDH refolding assay; conditions: read-out: Biochemical Assay IC50, HSP60/10-dMDH Refolding
GroEL ATPase = GroEL ATPase (Escherichia coli, UniProt P0A6F5); conditions: read-out: Biochemical Assay IC50, GroEL ATPase
[3] = target: T1, E. coli GroEL/ES chaperonin system; conditions: read-out: Biochemical Assay IC50, GroEL/ES-mediated refolding of dRho

Substance | IC50 [1] [µM] | IC50 [2] [µM] | IC50 (GroEL ATPase) [µM] | IC50 [3] [µM]
Cyanocobalamin (vtamin B12) [Compound 36] | 16 | 12 | > 250 | 0.12
Chlorophyllin sodium copper salt [Compound 19] | 2.3 | 4.4 | > 250 | 1.2

Where two headings read alike, the source gives them in different places.
